According to BindingDB's records for doi:10.1038/nchembio.81 (The Medical School, Newcastle University, 2008):

Biological target: T1, Beta-mannosidase (Bacteroides thetaiotaomicron, UniProt Q8AAK6)
T1 sequence (Q8AAK6 whole entry): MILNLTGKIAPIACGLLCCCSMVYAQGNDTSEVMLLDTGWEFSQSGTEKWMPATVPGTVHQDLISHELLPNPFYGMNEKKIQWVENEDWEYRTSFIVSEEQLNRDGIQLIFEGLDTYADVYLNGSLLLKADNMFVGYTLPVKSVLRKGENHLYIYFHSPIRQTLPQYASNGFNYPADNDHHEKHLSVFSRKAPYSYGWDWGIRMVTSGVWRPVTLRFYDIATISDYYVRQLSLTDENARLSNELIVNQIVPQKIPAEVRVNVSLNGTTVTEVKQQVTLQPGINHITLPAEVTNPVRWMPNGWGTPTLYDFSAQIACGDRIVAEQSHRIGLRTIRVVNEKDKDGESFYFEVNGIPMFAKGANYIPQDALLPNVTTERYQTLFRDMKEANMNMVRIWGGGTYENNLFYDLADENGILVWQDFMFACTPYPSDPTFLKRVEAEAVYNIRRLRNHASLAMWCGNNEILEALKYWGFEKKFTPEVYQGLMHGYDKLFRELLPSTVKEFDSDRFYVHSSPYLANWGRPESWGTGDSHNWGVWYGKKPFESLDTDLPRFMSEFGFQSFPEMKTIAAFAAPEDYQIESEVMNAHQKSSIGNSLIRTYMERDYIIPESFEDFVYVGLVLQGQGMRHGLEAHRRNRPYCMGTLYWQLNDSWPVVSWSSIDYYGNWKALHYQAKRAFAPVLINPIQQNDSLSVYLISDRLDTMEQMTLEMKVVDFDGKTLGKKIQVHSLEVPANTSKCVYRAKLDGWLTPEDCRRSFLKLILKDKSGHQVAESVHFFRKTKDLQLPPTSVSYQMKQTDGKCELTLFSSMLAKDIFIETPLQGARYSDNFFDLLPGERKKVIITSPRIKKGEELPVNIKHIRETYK
Test: Putative mannosidase assay using wild-type protein Btman2A. Enzyme inhibition assay.
Settings: pH 5.6; 37 °C

Question: For `OC[C@H]1C[C@@H]2[C@@H](O)[C@@H](O)[C@@]1(O)CN2Cc1ccccc1` [(1R,4R,5R,7R,8R)-2-Benzyl-5-(hydroxymethyl)-2-azabicyclo[2.2.2]octane-4,7,8-triol, 4a], which Ki is on record?
Answer: 13 µM
